In experiment [1] the test system is NCI-H292 lung cancer cells. Put plainly: FDA drug screening, complete media vs cholesterol-free media without statin (TABLE 1).
In experiment [2] the test system is NCI-H292 lung cancer cells. Put plainly: FDA drug screening, complete media vs cholesterol-free media with simvastatin (TABLE 2).

This is an account of results in US20250144067A1, “PERSONALIZED STARVATION THERAPY FOR CANCER” (Faeth Therapeutics, Inc., priority 2021, published 2025).

On to Acetophenazine (dimaleate), for which the Cholesterol-free in experiment [1] (NCI-H292 cells, cholesterol-free media without statin, FDA drug library screen) was 0.5724. The substance further had a Complete in experiment [1] (NCI-H292 cells, complete media, FDA drug library screen) of 1.148. Further, the Difference in experiment [1] (complete vs cholesterol-free media, […]) came out at 0.58; in experiment [2] (complete media minus cholesterol-free media + simvastatin, […]) it was 0.22. In addition, the “Cholesterol-free media + simvastatin (0.04 μM)” value in experiment [2] (NCI-H292 cells, FDA drug library screen, cholesterol-free media with simvastatin 0.04 μM) is 0.9453. Further, in experiment [2] (NCI-H292 cells, FDA drug library screen, complete media), the “Complete Media” value was 1.168.
